Source: article PMC12102759

B1: AZIN2 peptide 1-16 (Antizyme inhibitor 2), 16-mer library wild type / USP7 MATH (USP7 MATH domain, residues 53-206) (parent)
chain 1: MAGYLSESDFVMVEEG
chain 2: NTAEEDMEDDTSWRSEATFQFTVERFSRLSESVLSPPCFVRNLPWKIMVMPRFYPDRPHQKSVGFFLQCNAESDSTSWSCHAQAVLKIINYRDDEKSFSRRISHLFFHKENDWGFSNFMAWSEVTDPEKGFIDDDKVTFEVFVQADAPHGVAWD
B2: AZIN2 peptide 3-18 (Antizyme inhibitor 2), 16-mer library wild type / USP7 MATH (USP7 MATH domain, residues 53-206) (parent)
chain 1: GYLSESDFVMVEEGFS
chain 2: B1 chain 2
B3: MBOAT1 peptide 15-30 (Lysophospholipid acyltransferase 1), 16-mer library wild type / USP7 MATH (USP7 MATH domain, residues 53-206) (parent)
chain 1: TGSTYLHPLSELLGIP
chain 2: B1 chain 2

Variants of: B1
Experiment: proteomic peptide phage display deep mutational scan (ProP-PD DMS): M13 P8 16-mer library selected against immobilised GST-tagged bait for four days (rounds), NGS of the eluted pools per day and pseudo-replica
Conditions: with USP7 MATH (USP7 MATH domain, residues 53-206); bait immobilised on MaxiSorp plates (10 µg), library pre-cleared on GST, 2 h binding at 4 °C, five washes; one round per day, days 1-4; value from days 2 and 3; keep out of graded; scale: average fractional NGS count over selection days 2 and 3
A screen value of 0 was found for chain 1 F10I in this work.
A screen value of 0 was found for chain 1 F10M in this work.
A screen value of 0 was found for chain 1 F10N in this work.
A screen value of 0 was found for chain 1 F10Y in this work.
A screen value of 3.89e-05 was found for chain 1 G3A in this work.
A screen value of 0 was found for chain 1 G3N in this work.
A screen value of 2.57e-05 was found for chain 1 G3R in this work.
A screen value of 0 was found for chain 1 G3S in this work.
A screen value of 1.53e-05 was found for chain 1 G16I in this work.
A screen value of 2.96e-05 was found for chain 1 G16W in this work.
A screen value of 0 was found for chain 1 L5M in this work.
A screen value of 0 was found for chain 1 L5R in this work.
A screen value of 0 was found for chain 1 L5T in this work.
A screen value of 0 was found for chain 1 M12K in this work.
A screen value of 1.82e-05 was found for chain 1 M12P in this work.
A screen value of 1.16e-05 was found for chain 1 M12T in this work.
A screen value of 0 was found for chain 1 S6E in this work.
A screen value of 0 was found for chain 1 S6H in this work.
A screen value of 0 was found for chain 1 S8A in this work.
A screen value of 8.6e-06 was found for chain 1 S8F in this work.
A screen value of 0 was found for chain 1 S8G in this work.
A screen value of 2.57e-05 was found for chain 1 V11H in this work.
A screen value of 1.04e-05 was found for chain 1 V11K in this work.
A screen value of 1.98e-05 was found for chain 1 V11N in this work.
A screen value of 9.63e-06 was found for chain 1 V11P in this work.
A screen value of 9.4e-06 was found for chain 1 V11Q in this work.
A screen value of 1.04e-05 was found for chain 1 V11R in this work.
A screen value of 8.6e-06 was found for chain 1 V11S in this work.
A screen value of 0 was found for chain 1 V11Y in this work.
A screen value of 1.04e-05 was found for chain 1 V13A in this work.
A screen value of 0 was found for chain 1 V13D in this work.
A screen value of 6.69e-06 was found for chain 1 V13G in this work.
A screen value of 0 was found for chain 1 V13K in this work.
A screen value of 0 was found for chain 1 V13W in this work.
A screen value of 0 was found for chain 1 Y4A in this work.
A screen value of 0 was found for chain 1 Y4I in this work.

Variants of: B2
Experiment: as above
Conditions: with USP7 MATH (USP7 MATH domain, residues 53-206); bait immobilised on MaxiSorp plates (10 µg), library pre-cleared on GST, 2 h binding at 4 °C, five washes; one round per day, days 1-4; value from days 2 and 3; keep out of graded; scale: average fractional NGS count over selection days 2 and 3
A screen value of 0 was found for chain 1 D7I in this work.
A screen value of 0 was found for chain 1 E5H in this work.
A screen value of 0 was found for chain 1 E5N in this work.
A screen value of 0 was found for chain 1 E5S in this work.
A screen value of 1.31e-05 was found for chain 1 E5W in this work.
A screen value of 0 was found for chain 1 E12I in this work.
A screen value of 0 was found for chain 1 E12L in this work.
A screen value of 0 was found for chain 1 E13K in this work.
A screen value of 0 was found for chain 1 E13V in this work.
A screen value of 0 was found for chain 1 E13Y in this work.
A screen value of 0 was found for chain 1 F8A in this work.
A screen value of 0 was found for chain 1 F8D in this work.
A screen value of 0 was found for chain 1 F8G in this work.
A screen value of 0 was found for chain 1 F15G in this work.
A screen value of 0 was found for chain 1 G1M in this work.
A screen value of 0 was found for chain 1 G14P in this work.
A screen value of 0 was found for chain 1 G14S in this work.
A screen value of 0 was found for chain 1 G14V in this work.
A screen value of 0 was found for chain 1 G14Y in this work.
A screen value of 0 was found for chain 1 L3I in this work.
A screen value of 0 was found for chain 1 L3Q in this work.
A screen value of 0 was found for chain 1 S4G in this work.
A screen value of 0 was found for chain 1 S4H in this work.
A screen value of 0 was found for chain 1 S4L in this work.
A screen value of 0 was found for chain 1 S4Q in this work.
A screen value of 0 was found for chain 1 S6H in this work.
A screen value of 0 was found for chain 1 V9D in this work.
A screen value of 0 was found for chain 1 V9L in this work.
A screen value of 0 was found for chain 1 V9T in this work.
A screen value of 0 was found for chain 1 V11F in this work.
A screen value of 0 was found for chain 1 V11H in this work.
A screen value of 0 was found for chain 1 V11L in this work.
A screen value of 0 was found for chain 1 V11W in this work.
A screen value of 0 was found for chain 1 Y2E in this work.

Variants of: B3
Experiment: as above
Conditions: with USP7 MATH (USP7 MATH domain, residues 53-206); bait immobilised on MaxiSorp plates (10 µg), library pre-cleared on GST, 2 h binding at 4 °C, five washes; one round per day, days 1-4; value from days 2 and 3; keep out of graded; scale: average fractional NGS count over selection days 2 and 3
A screen value of 0 was found for chain 1 E11A in this work.
A screen value of 0 was found for chain 1 E11D in this work.
A screen value of 0 was found for chain 1 E11F in this work.
A screen value of 0 was found for chain 1 E11I in this work.
A screen value of 0 was found for chain 1 E11K in this work.
A screen value of 0 was found for chain 1 E11L in this work.
A screen value of 0 was found for chain 1 E11M in this work.
A screen value of 0 was found for chain 1 E11P in this work.
A screen value of 0 was found for chain 1 E11Q in this work.
A screen value of 0 was found for chain 1 E11Y in this work.
A screen value of 2.68e-05 was found for chain 1 G2A in this work.
A screen value of 0.000147 was found for chain 1 G2D in this work.
A screen value of 0.000755 was found for chain 1 G2E in this work.
A screen value of 0.000133 was found for chain 1 G2F in this work.
A screen value of 0 was found for chain 1 G2H in this work.
A screen value of 3.52e-05 was found for chain 1 G2I in this work.
A screen value of 0.000117 was found for chain 1 G2L in this work.
A screen value of 0.000101 was found for chain 1 G2M in this work.
A screen value of 0 was found for chain 1 G2P in this work.
A screen value of 0 was found for chain 1 G2S in this work.
A screen value of 0 was found for chain 1 G2T in this work.
A screen value of 5.42e-05 was found for chain 1 G2V in this work.
A screen value of 0.000165 was found for chain 1 G2W in this work.
A screen value of 0.000108 was found for chain 1 G2Y in this work.
A screen value of 0 was found for chain 1 G14A in this work.
A screen value of 0 was found for chain 1 G14F in this work.
A screen value of 0 was found for chain 1 G14H in this work.
A screen value of 0 was found for chain 1 G14I in this work.
A screen value of 0 was found for chain 1 G14K in this work.
A screen value of 0 was found for chain 1 G14L in this work.
A screen value of 0 was found for chain 1 G14M in this work.
A screen value of 0 was found for chain 1 G14N in this work.
A screen value of 0 was found for chain 1 G14R in this work.
A screen value of 1.16e-05 was found for chain 1 G14S in this work.
A screen value of 0 was found for chain 1 G14T in this work.
A screen value of 0 was found for chain 1 G14V in this work.
A screen value of 0 was found for chain 1 G14W in this work.
A screen value of 0 was found for chain 1 G14Y in this work.
A screen value of 0 was found for chain 1 H7M in this work.
A screen value of 0 was found for chain 1 H7Q in this work.
A screen value of 0 was found for chain 1 H7V in this work.
A screen value of 1.61e-05 was found for chain 1 I15F in this work.
A screen value of 0 was found for chain 1 I15G in this work.
A screen value of 0 was found for chain 1 I15L in this work.
A screen value of 0.000147 was found for chain 1 I15M in this work.
A screen value of 0 was found for chain 1 I15P in this work.
A screen value of 2.63e-05 was found for chain 1 I15Q in this work.
A screen value of 0 was found for chain 1 I15R in this work.
A screen value of 0 was found for chain 1 I15S in this work.
A screen value of 0 was found for chain 1 I15V in this work.
A screen value of 0.000224 was found for chain 1 I15W in this work.
A screen value of 0 was found for chain 1 L6D in this work.
A screen value of 0 was found for chain 1 L6F in this work.
A screen value of 3.89e-05 was found for chain 1 L6I in this work.
A screen value of 0 was found for chain 1 L6M in this work.
A screen value of 0 was found for chain 1 L6P in this work.
A screen value of 0 was found for chain 1 L6Q in this work.
A screen value of 0 was found for chain 1 L6V in this work.
A screen value of 0 was found for chain 1 L6W in this work.
A screen value of 0 was found for chain 1 L9I in this work.
A screen value of 0 was found for chain 1 L9M in this work.
A screen value of 0 was found for chain 1 L12D in this work.
A screen value of 0.000745 was found for chain 1 L12F in this work.
A screen value of 0 was found for chain 1 L12M in this work.
A screen value of 0.000166 was found for chain 1 L12Y in this work.
A screen value of 1.45e-05 was found for chain 1 L13F in this work.
A screen value of 0 was found for chain 1 L13I in this work.
A screen value of 0 was found for chain 1 L13M in this work.
A screen value of 0 was found for chain 1 L13S in this work.
A screen value of 0 was found for chain 1 P8E in this work.
A screen value of 0 was found for chain 1 P8L in this work.
A screen value of 0 was found for chain 1 P8N in this work.
A screen value of 0 was found for chain 1 P8Q in this work.
A screen value of 0 was found for chain 1 P8T in this work.
A screen value of 3.58e-05 was found for chain 1 P16A in this work.
A screen value of 0 was found for chain 1 P16D in this work.
A screen value of 0 was found for chain 1 P16E in this work.
A screen value of 1.34e-05 was found for chain 1 P16G in this work.
A screen value of 0 was found for chain 1 P16H in this work.
A screen value of 9.4e-06 was found for chain 1 P16I in this work.
A screen value of 0 was found for chain 1 P16L in this work.
A screen value of 0.00014 was found for chain 1 P16M in this work.
A screen value of 1.53e-05 was found for chain 1 P16N in this work.
A screen value of 0 was found for chain 1 P16Q in this work.
A screen value of 0.000173 was found for chain 1 P16S in this work.
A screen value of 4.7e-05 was found for chain 1 P16T in this work.
A screen value of 0.000913 was found for chain 1 P16V in this work.
A screen value of 5.35e-05 was found for chain 1 P16W in this work.
A screen value of 1.74e-05 was found for chain 1 P16Y in this work.
A screen value of 8.6e-06 was found for chain 1 S3A in this work.
A screen value of 6.29e-05 was found for chain 1 S3D in this work.
A screen value of 3.23e-05 was found for chain 1 S3E in this work.
A screen value of 5.22e-05 was found for chain 1 S3F in this work.
A screen value of 3.03e-05 was found for chain 1 S3H in this work.
A screen value of 6.88e-05 was found for chain 1 S3L in this work.
A screen value of 4.73e-05 was found for chain 1 S3M in this work.
A screen value of 1.31e-05 was found for chain 1 S3Q in this work.
